The assay concerns the target T1, human P2X4 receptors (Homo sapiens, UniProt Q99571).
T1 sequence (Q99571 1-388): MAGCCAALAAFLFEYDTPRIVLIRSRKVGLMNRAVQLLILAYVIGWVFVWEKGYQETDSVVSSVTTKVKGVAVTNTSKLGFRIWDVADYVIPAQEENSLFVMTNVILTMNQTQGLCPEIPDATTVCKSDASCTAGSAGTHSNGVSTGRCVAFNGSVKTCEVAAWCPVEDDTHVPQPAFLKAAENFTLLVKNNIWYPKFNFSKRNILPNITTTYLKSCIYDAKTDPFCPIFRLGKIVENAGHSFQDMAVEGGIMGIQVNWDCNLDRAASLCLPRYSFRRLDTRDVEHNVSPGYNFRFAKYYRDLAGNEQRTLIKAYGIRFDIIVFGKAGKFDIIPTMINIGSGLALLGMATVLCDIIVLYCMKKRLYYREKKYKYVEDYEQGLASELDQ
As to the kind of experiment: P2X4 receptor antagonism, intracellular calcium influx assay (Fura-2 AM, ATP-induced). The class given is cell-based. The settings on record: Table 19; 1321N1 cells stably expressing human P2X4 receptors; compound added 15 min before ATP; fluorescence ratio F340/F380 vs control; read-out: Inhibition activities (IC50 μM). On the procedure: 1321N1 cells stably expressing human P2X4 receptors were adopted for calcium influx assay. P2X4/1321N1 cells were plated in 96-well assay plate and cultured for 24 hours in an atmosphere of 5% CO2 at 37° C. Fura-2 AM calcium indicator dissolved in an extracellular solution for calcium imaging was loaded onto cells for 45 minutes at room temperature. The fluorescence was detected by FLUOstar OPTIMA micro plate reader (BMG labtech). The cells were alternatively illuminated with two excitations wavelengths (340 nm and 380 nm) via xenon lamp and the emitted fluorescence was measured at 510 nm. The fluorescence changes after the treatment of 1 μM ATP were monitored and determined the fluorescence ratio (F340/F380) as the index of intracellular calcium change. Tested compounds were treated to cells 15 min before the addition of ATP and the inhibition activities of compounds were calculated by comparing the Ca^2+ response with control in the absence of tested compound.
P2X4 receptor antagonism of the compound of the present invention was measured as described below. […]
Test compounds were treated to cells for 15 minutes before the addition of ATP, and the response to intracellular calcium influx induced by addition of ATP was monitored by a micro plate reader. The fluorescence ratio of excitations wavelengths of 340 nm and 380 nm was used as the index of intracellular calcium change. […]
In general terms: Calcium flux is commonly read through the fluorescence of an indicator in the cells.

As a reminder, the IC50 is the concentration needed to halve the response being measured.

Structures are written as SMILES.

As to `O=C1CC(=O)N(c2cccc(-c3nnn[nH]3)c2)c2ccc3c(c2N1)CCCC3.[Na]` [Example 2, 5-[3-(1H-Tetrazol-5-yl)phenyl]-8,9,10,11-tetrahydronaphtho[2,1-b][1,4]diazepine-2,4(3H,5H)-dione sodium salt], the IC50 worked out at 0.36 µM.

Values taken from patent US8962613B2, “P2X4 receptor antagonist” (Nippon Chemiphar Co., Ltd., priority 2010, dated 2015).
